Potency data for one compound are collected here from PubChem BioAssay AID686948 (National Center for Advancing Translational Sciences (NCATS), 2013).

Protein sequences, listed by entry. Tags and fused reporters are not part of them.
UniProt P07947, whole entry, looked up: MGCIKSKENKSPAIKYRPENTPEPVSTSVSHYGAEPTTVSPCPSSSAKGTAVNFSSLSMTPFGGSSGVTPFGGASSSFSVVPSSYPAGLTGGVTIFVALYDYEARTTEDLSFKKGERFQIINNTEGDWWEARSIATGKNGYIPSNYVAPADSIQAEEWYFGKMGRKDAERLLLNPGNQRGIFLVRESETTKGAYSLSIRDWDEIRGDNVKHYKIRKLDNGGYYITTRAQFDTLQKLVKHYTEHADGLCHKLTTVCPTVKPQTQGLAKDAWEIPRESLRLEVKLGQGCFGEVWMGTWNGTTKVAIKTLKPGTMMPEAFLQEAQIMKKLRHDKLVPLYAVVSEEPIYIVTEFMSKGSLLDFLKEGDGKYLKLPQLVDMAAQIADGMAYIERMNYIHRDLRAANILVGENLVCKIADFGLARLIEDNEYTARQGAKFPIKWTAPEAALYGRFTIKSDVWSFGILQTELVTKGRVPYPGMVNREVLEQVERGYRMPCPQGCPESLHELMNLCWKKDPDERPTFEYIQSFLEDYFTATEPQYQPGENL

For the experiment, the target named is Tyrosine-protein kinase Yes (Homo sapiens) (UniProt P07947). The experiment can be described thus: qHTS for small molecule inhibitors of Yes1 kinase: Confirmatory screen on the cherrypicks. The settings on record: Recombinant Yes1, ADP-Glo luminescence, poly(E4Y) substrate. An excerpt:
The Src family of non-receptor protein tyrosine kinases contains nine members, including Yes1, Src, Fyn, Lyn, and […]. These kinases have important roles in a variety of cellular functions, such as cell proliferation, survival, and differentiation. Src, the most well characterized member of this family, has been previously identified as a proto-oncogene. […] In melanoma, it has been shown that Yes1, and not other family members, such as Src, is functionally involved in the malignant phenotype. Additionally, a recent study examining the downregulation of Yes1 by shRNA found significant effects on cell survival/growth for basal-like and Her2-positive breast cancers. […]
Two microliter of Yes1 enzyme (columns 1-2, 5-48; Millipore, Billerica, MA) are dispensed into Greiner, white solid-bottom 1536-well assay plates; columns 3 and 4 receive buffer without Yes1 as a control for maximum inhibition. […] The production of ADP is then quantified by the ADP-Glo Kit (Promega, Madison, WI). First, 2 uL of the first kit reagent is added, and the reaction is incubated for 45 minutes; then, 4 uL of the second kit reagent are added and the reaction is incubated for 30 minutes at which time the luminescence is read on a Viewlux plate reader (Perkin-Elmer, Waltham, MA). […]
On the technique in general: In qHTS, concentration-response curves come from the screen itself.

Molecules are shown by their SMILES. Only a part is listed here, and it is no random draw. Active and inactive are the calls of the source. Calls follow the shape of the dose curve; as a rule, active = well fitted inhibition curve with a large enough effect; inactive = flat fitted curve, though single readings scatter.

As to `CCN1CCN(Cc2ccc(-c3cc4c(N[C@H](C)c5ccccc5)ncnc4[nH]3)cc2)CC1`, the Potency is active: 17.5 nM.
